In PubChem BioAssay AID488899 (Broad Institute, 2010):
This is a selection; strong and weak results do not stand in their true shares. Calls of active or inactive are those of the source.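 How the source made its calls: active means mean inhibition across replicates of 60% or more, whatever share of single replicates reaches that level; inconclusive means some that reach 60%, reason not given; inactive means mean inhibition across replicates below 60%.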

Assay: MITF transcriptional activity suppression – cell-based, SK-MEL-5, single point, luciferase, primary screen (AID 488899)
Conditions: SK-MEL-5 TRPM1 promoter luciferase, 24 h; at 12.5 µM; stronger effect = higher value

With `CCC(=O)N(c1ccccc1)C1(COC)CCN(CCn2nnn(CC)c2=O)CC1` as the compound, how does the inhibition read?
The inhibition was inactive: 3.45%.

Which inhibition does the source give for `CCC(=O)N(c1ccccc1)C1(COC)CCN(CCc2cccs2)CC1` here?
Its inhibition is inactive: -2.16%.
